Target: T1, Mouse LAMP1 (Mus musculus, UniProt P11438)
T1 construct: made in house; host or cells: HEK293 (293-F), transient expression, IMAC-purified
T1 sequence (P11438 with tags, fused parts or gaps): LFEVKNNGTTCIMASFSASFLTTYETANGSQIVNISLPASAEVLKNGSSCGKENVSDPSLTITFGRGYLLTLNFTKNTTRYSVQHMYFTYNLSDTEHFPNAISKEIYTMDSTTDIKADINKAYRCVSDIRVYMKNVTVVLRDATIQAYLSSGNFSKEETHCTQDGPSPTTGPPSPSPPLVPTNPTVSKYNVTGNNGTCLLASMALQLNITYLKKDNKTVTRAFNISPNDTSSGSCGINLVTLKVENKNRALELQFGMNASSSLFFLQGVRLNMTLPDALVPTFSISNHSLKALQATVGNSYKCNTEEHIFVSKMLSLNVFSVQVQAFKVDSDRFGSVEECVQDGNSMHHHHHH
Assay: ELISA on mouse LAMP1 extracellular domain
Assay type: binding
Description: The high level of glycosylation of the antigen required a specific approach to determine the binding site of the anti-LAMP1 mAbs on LAMP1. […] This absence of binding was used to design several chimeric LAMP1 proteins in which one or several of the LAMP1 domains (Loop1-Loop4) in the human construct were replaced by the murine counterpart. The absence of binding once the binding site of the antibody was replaced by the murine counterpart allowed for identification of the antibody binding side.
Secreted LAMP1 proteins described in example 6.2 were used to identify the binding domain to anti-LAMP1 mAbs by ELISA.

B1: chMAb3: chimeric antibody from MAb3, heavy chain SEQ ID NO: 49, light chain SEQ ID NO: 50 (antibody)
heavy: QIQLVQSGPELKKPGETVKISCKASGYIFTNYGMNWVKQAPGKGLKWMGWINTYTGESRYADDFKGRFALSLETSASTAYLQINNLENEDMATYFCAREDYYGNSPWFFDVWGAGTTVTVSSASTKGPSVFPLAPSSKSTSGGTAALGCLVKDYFPEPVTVSWNSGALTSGVHTFPAVLQSSGLYSLSSVVTVPSSSLGTQTYICNVNHKPSNTKVDKKV[not shown - human IgG1 Fc]
light: DIQMTQTTSSLSASLGDRVTISCNASQGINKYLNWYQQKPDGTVKLLIYYTSTLHSGVPSRFSGSGSGTDYSLTINNLEPEDIATYYCQQYTKLPFTFGSGTKLEIKRTVAAPSVFIFPPSDEQLKSGTASVVCLLNNFYPREAKVQWKVDNALQSGNSQESVTEQDSKDSTYSLSSTLTLSKADYEKHKVYACEVTHQGLSSPVTKSFNRGEC
modifications: HC chMAb3; LC chMAb3
EC50 (nM) Mouse LAMP1: No binding

Reference: patent publication US9809653B2, “Anti-LAMP1 antibodies and antibody drug conjugates, and uses thereof” (SANOFI, priority 2012, dated 2017)
